These are literature values, as cited in article PMC1307573 (Journal of Insect Science, 2005).

As usually defined, the half-life is the time needed for the level to fall by half in the phase considered.

Structures are written as SMILES.

The conditions of the data set: NO donor; cited from earlier work.

Consider `CCN(CC)/[N+]([O-])=N/O` [DEA-NONOate, diethylamine- (DEA)-NONOate], for which the half-life is 16 min.
